The results in this text go back to PubChem BioAssay AID1040 (The Scripps Research Institute Molecular Screening Center, 2008).

By UniProt entry, the sequences of proteins in these tests, tags left out.
UniProt P25929, whole entry, looked up: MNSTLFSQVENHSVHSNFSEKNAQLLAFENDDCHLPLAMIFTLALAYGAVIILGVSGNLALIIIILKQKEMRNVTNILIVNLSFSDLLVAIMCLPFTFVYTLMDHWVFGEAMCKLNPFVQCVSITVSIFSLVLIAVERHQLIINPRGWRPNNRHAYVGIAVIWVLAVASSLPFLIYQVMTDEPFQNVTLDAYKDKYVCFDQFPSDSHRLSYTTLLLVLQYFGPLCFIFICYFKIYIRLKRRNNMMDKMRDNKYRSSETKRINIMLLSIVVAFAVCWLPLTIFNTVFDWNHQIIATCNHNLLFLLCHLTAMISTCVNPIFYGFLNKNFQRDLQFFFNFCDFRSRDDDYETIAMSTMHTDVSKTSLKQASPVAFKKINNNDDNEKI

This is a selection; strong and weak results do not stand in their true shares. Active and inactive are the calls of the source.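 Rule for the calls: active = inhibition above the campaign mean inhibition of all tested compounds plus 3 SD (cut at about 20% in these data); inactive = the rest.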

What is called inhibition is the relative decrease from the control value, in per cent.

The target in this assay is Neuropeptide Y receptor type 1 (Homo sapiens) (UniProt P25929). The experiment in a line: NPY-Y1 receptor antagonists, primary screen, cell-based (AID 1040).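 Note: 0% = DMSO wells given NPY plus isoproterenol and 100% = isoproterenol alone without NPY.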 The note with it: HEK293-CNG Y1 cells, membrane potential fluorescence; at 3.6 µM; hits give high values; NPY at EC95, then isoproterenol.
In the case of `CC(=O)N1C2C3N(C(C)=O)C1C1N(C(C)=O)C(C(N1C(C)=O)N3C(C)=O)N2C(C)=O`, the inhibition is inactive: 5.45%. `O=[N+]([O-])c1cccc2n[nH]nc12`: the inhibition was inactive: 4.99%. With `Cc1ccc(NP(=O)(Oc2ccccc2)Oc2ccccc2)nc1` the figure was inactive: -0.93%; with `O=[N+]([O-])c1cc([N+](=O)[O-])c(CCNc2ccccc2)c([N+](=O)[O-])c1`, inactive: -3.71%. In the case of `CCc1nc2c(n1)c1c(non1O)c1c2no[n+]1[O-]` it was inactive: 18.7%. In the case of `COc1ccc(C2=NCC(CBr)S2)cc1` (stereo not given) it was inactive: 5.06%. Regarding `CC(C)=N/N=C(\N)N[N+](=O)[O-]`, the inhibition is inactive: 2.56%. With `CN(C)C(=O)OCCc1n(C)cc[n+]1C` the figure was inactive: -4%; with `CC1CCN(C(=O)Oc2c(Cl)cc(Cl)c3cccnc23)CC1`, inactive: 8.08%; with `CCN(/C(=N/P(=O)(N1CCOCC1)N1CCOCC1)N1CCOCC1)c1ccc(OC)cc1`, inactive: 6.79%. In the case of `O=[N+]([O-])c1ncn(CCn2ncnc2[N+](=O)[O-])n1` it was inactive: 0.56%. With `Cc1cc(SC(NC(=O)c2ccc(F)cc2)C(Cl)(Cl)Cl)ncn1` (stereo not given) the figure was inactive: -1.03%; with `CCOP(=O)(Nc1ccccc1)OCC`, inactive: 4.64%; with `CCN(N=Nc1nonc1N)c1nonc1N`, inactive: 0.48%. With `COc1ccccc1OP(=O)(Nc1ccc(C)cn1)Oc1ccccc1OC`, the inhibition is inactive: 3.04%. In the case of `CN1CCCC(OC(=O)C(c2ccccc2)c2ccccc2)C1` (stereo not given) it was inactive: 0.82%.

`Clc1ccc(Cl)c(NC2=NCC(CBr)S2)c1` (stereo not given): the inhibition was inactive: 2.2%. With `NC(=O)c1cc([N+](=O)[O-])cc([N+](=O)[O-])c1N` the figure was inactive: 2.09%. In the case of `Cc1ccc(N/C(=N/P(=O)(N2CCOCC2)N2CCOCC2)N2CCOCC2)cc1` it was inactive: -0.2%; in that of `CC(C)CC(=O)NC(Sc1ccc(Cl)cc1)C(Cl)(Cl)Cl` (stereo not given), inactive: 3.02%. In the case of `Oc1ccccc1CNc1ccccn1` it was inactive: 12.7%; in that of `O=C(NC(Sc1ccncn1)C(Cl)(Cl)Cl)c1ccccc1` (stereo not given), inactive: -5.83%. As to `Cc1c2non([O-])c-2c(C)[n+](=O)[n+]1[O-]`, the inhibition was inactive: -4.19%. With `CC(C)(C)C(=O)NC(Sc1ccccc1)C(Cl)(Cl)Cl` (stereo not given) the figure was inactive: 8.32%; with `O=P1(Nc2nc3ccc(Cl)cc3s2)COc2ccccc2O1` (stereo not given), inactive: -2.13%; with `CCOc1ccc(C2=NCC(CBr)S2)cc1` (stereo not given), inactive: -3.07%. In the case of `CC(=O)Nc1ccc(Oc2c([N+](=O)[O-])cc([N+](=O)[O-])cc2[N+](=O)[O-])cc1` it was inactive: 9.51%. `O=C(NC1CCS(=O)(=O)C1)NP(=S)(Oc1ccccc1)Oc1ccccc1` (stereo not given): the inhibition was inactive: -2.44%. With `CCNC(=S)/N=C(\N)N[N+](=O)[O-]` the figure was inactive: -1.63%; with `c1ccc(-c2nn[nH]n2)c(-c2nn[nH]n2)c1`, inactive: 5%. With `CCOC(=O)NC(Sc1ccccc1)C(Cl)(Cl)Cl` (stereo not given) the figure was inactive: 0.5%; with `O=c1c2cc([N+](=O)[O-])ccc2[nH]c2c([N+](=O)[O-])cc([N+](=O)[O-])cc12`, inactive: 5.13%. In the case of `COC(=O)c1cc2c(s1)N=C(c1ccccc1)N(C)P2(=O)N1CCOCC1` (stereo not given), the inhibition was inactive: 1.15%.

In the case of `CC(=O)NC(SC(=S)N(CC(C)C)CC(C)C)C(Cl)(Cl)Cl` (stereo not given), the inhibition is inactive: 12.9%.

Consider `Cc1ccc(OP(=O)(Nc2ccccn2)Oc2ccc(C)cc2)cc1`, for which the inhibition is inactive: 4.56%. With `CCC(=O)N1C2C3N(C(=O)CC)C1C1N(C(=O)CC)C(C(N1C(=O)CC)N3C(=O)CC)N2C(=O)CC` the figure was inactive: 6.38%; with `O=P(Nc1ccccn1)(c1ccc(Br)cc1)c1ccc(Br)cc1`, inactive: 11.8%; with `C(Cc1nn[nH]n1)Cc1nn[nH]n1`, inactive: 5.73%. With `O=C(OC1CN2CCC1CC2)c1cccc(Cl)c1` (stereo not given) the figure was inactive: 3.59%; with `CC(=O)NC(SC(=S)N(C)C)C(Cl)(Cl)Cl` (stereo not given), inactive: 0.78%; with `c1nnnn1CCn1cnnn1`, inactive: -2.48%. With `O=P(Nc1nccs1)(c1ccccc1)c1ccccc1` the figure was inactive: 5.47%; with `CC(C)C(=O)NC(Sc1ccccc1)C(Cl)(Cl)Cl` (stereo not given), inactive: -3.78%; with `Clc1n[nH]nc1-c1nn[nH][15n]1`, inactive: 8.55%.

Consider `O=P1(Nc2ccccn2)COc2ccccc2OC1`, for which the inhibition was inactive: -5.44%. As for `CC1(CBr)Cn2c(nc3ccccc3c2=O)S1` (stereo not given), the inhibition is inactive: 1.68%.

`CN(C(=O)Cc1ccc(Cl)c(Cl)c1)[C@@H]1CCCC[C@H]1N1CCCC1`: the inhibition is inactive: 6.59%. `CC(C)/C=N\N=C(\N)N[N+](=O)[O-]`: the inhibition is inactive: 3.6%. In the case of `CN(C)C1(CNC(=O)c2ccc(S(C)(=O)=O)cc2)CCCCC1` it was inactive: 1.75%; in that of `Cc1nn(-c2ccccc2)c2c1P(=O)(N1CCOCC1)N(C)C(c1ccccc1)=N2` (stereo not given), inactive: -5.45%. Regarding `CC1CCC(C(C)C)C(OP(=O)(Nc2ccccn2)c2ccccc2)C1` (stereo not given), the inhibition was inactive: 3.91%. With `Cc1ccc(OCC(=O)OC2CN3CCC2CC3)cc1` (stereo not given) the figure was inactive: -0.22%; with `O=P1(Nc2ccc(Br)cn2)COc2ccccc2OC1`, inactive: 4.22%; with `O=P1(Nc2ncccn2)COc2ccccc2OC1`, inactive: -3.55%. `CCOP1(=S)c2c(C)nn(CCC#N)c2N=C(c2ccccc2F)N1C` (stereo not given): the inhibition was inactive: -0.39%.

`O=P(Nc1nccs1)(Oc1ccccc1)Oc1ccccc1`: the inhibition was inactive: -3.51%.

For the compound `O=P(Nc1nccs1)(c1ccccc1)c1nc2ccccc2s1` (stereo not given), the inhibition was inactive: 2.26%. Regarding `O=[N+]([O-])c1ccc2c(c1)nnn2O`, the inhibition was inactive: 11.6%. With `CCOP1(=S)c2c(C)nn(CCC#N)c2N=C(c2ccc(F)cc2)N1C` (stereo not given) the figure was inactive: 2.5%. In the case of `Cc1cccc(OCC(=O)OC2CN3CCC2CC3)c1` (stereo not given) it was inactive: 6.18%; in that of `COc1cc(C(=O)NCC2(N3CCOCC3)CCCCC2)cc(Cl)c1OC(C)C`, inactive: -1.81%. Take `COc1cc(C2NCCC3(OCCO3)C2(C)C)cc(OC)c1OC` (stereo not given): the inhibition was inactive: 1.86%. With `CCOP(=O)(Nc1cccc2ccccc12)OCC` the figure was inactive: -0.08%; with `Cc1ccc(NCCc2c([N+](=O)[O-])cc([N+](=O)[O-])cc2[N+](=O)[O-])cc1`, inactive: 6.36%. In the case of `COc1ccc2nc(NP(=O)(c3ccccc3)c3ccccc3)sc2c1`, the inhibition was inactive: 4.83%. In the case of `O=C(OC1CN2CCC1CC2)C12CC3CC(CC(C3)C1)C2` (stereo not given) it was inactive: 5.6%; in that of `Cc1cc(=O)[nH]c(N[N+](=O)[O-])n1`, inactive: 1.48%.

As for `Cc1c2c(nc3ccccc13)SC(C(Cl)Cl)C2` (stereo not given), the inhibition is inactive: -2.99%. In the case of `COc1ccc(N/C(=N/P(=O)(N2CCOCC2)N2CCOCC2)N2CCOCC2)cc1` it was inactive: 0.5%. Consider `Cc1ccc2nc3c(c(C)c2c1)CC(C(Cl)Cl)S3` (stereo not given), for which the inhibition is inactive: -0.12%. With `CC(C)NC(=O)NP(=O)(Oc1ccccc1)Oc1ccccc1` the figure was inactive: -0.39%; with `CCN(CC)C(=S)SC(NC=O)C(Cl)(Cl)Cl` (stereo not given), inactive: 3.32%. As for `O=[N+]([O-])c1cc([N+](=O)[O-])c(-c2ccn[nH]2)s1`, the inhibition was inactive: 0.99%.

For the compound `ClCCSc1nnc(-c2cccnc2)o1`, the inhibition was inactive: -2.68%.

With `Cc1cc(SC(NC(=O)c2ccccc2)C(Cl)(Cl)Cl)nc(C(C)C)n1` (stereo not given), the inhibition is inactive: -4.81%.

Regarding `Cc1cc(SC(NC=O)C(Cl)(Cl)Cl)ncn1` (stereo not given), the inhibition was inactive: 4.07%.

Take `O=P(Nc1ccccn1)(c1cccc2ccccc12)c1cccc2ccccc12`: the inhibition is inactive: 0.01%.

`O=C(COc1ccccc1)OC1CN2CCC1CC2` (stereo not given): the inhibition is inactive: -9.98%. In the case of `COP1(=S)c2c(C)nn(CCC#N)c2N=C(c2ccc(F)cc2)N1C` (stereo not given) it was inactive: 2.21%; in that of `CCC(C)N(CC(C)C)C(=S)SC(NC(C)=O)C(Cl)(Cl)Cl` (stereo not given), inactive: 3.31%.
